The test system of the series is RAW cells. Description: cytoprotection of RAW cells exposed to H2O2 (viability). As to conditions: 0.1 μM, pre-treated 4 hours, H2O2 200 μM for 24 hours; H2O2 alone 65%.

Data on two molecules can be found in patent US20130116284A1, “LIPOIC ACID AND NITROXIDE DERIVATIVES AND USES THEREOF” (RADIKAL THERAPEUTICS INC., priority 2010, published 2013).

Take `NC(=O)c1cccc2[nH]c(CCCCC3CCSS3)nc12` (centres unmarked) [compound 1, 2-(4-(1,2-dithiolan-3-yl)butyl)-1H-benzo[d]imidazole-4-carboxamide]: the “viability of RAW cells after H2O2 (restored from 65%)” value is on record as 90%.
With `C[C@]1(c2nc3c(C(N)=O)cccc3[nH]2)CCCN1` [ABT-888], the “viability of RAW cells after H2O2 (restored from 65%)” value is on record as 75%.
